Reference: patent publication US20020177203

Test system: (Pro-Pro-Gly)10

human type 1 prolyl 4-hydroxylase tetramer
Km: 18 µM
